In the assay the target is T1, CB2 (CB1-/- mouse spleen membranes) (Mus musculus, UniProt P47936).
T1 construct: gene Cnr2; native receptor in spleen membranes of CB1 knockout mice
The assay can be described thus: [3H]CP55, […] displacement, filtration. It counts as binding. The following applies: 0.5 nM radioligand, 2 h, 37 °C, pH 7.4.

Chains of the proteins cited; added tags and fusions are not shown. Lines headed by an entry give the natural chain unless they say otherwise; changes in a name come on top.
UniProt P47936: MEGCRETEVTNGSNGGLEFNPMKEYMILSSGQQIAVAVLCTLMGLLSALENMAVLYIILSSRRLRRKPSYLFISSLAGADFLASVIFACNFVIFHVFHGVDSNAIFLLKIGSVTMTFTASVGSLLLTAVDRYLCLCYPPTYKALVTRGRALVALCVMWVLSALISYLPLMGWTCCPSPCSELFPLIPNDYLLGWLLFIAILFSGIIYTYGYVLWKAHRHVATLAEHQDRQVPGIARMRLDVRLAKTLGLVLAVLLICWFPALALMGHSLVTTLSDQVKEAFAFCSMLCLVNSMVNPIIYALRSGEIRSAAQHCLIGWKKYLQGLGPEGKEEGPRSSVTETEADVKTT

For the compound `Cc1ccc(Cn2nc(C(=O)N[C@@H]3C(C)(C)[C@@H]4CC[C@@]3(C)C4)cc2-c2ccc(Cl)c(C)c2)cc1` [SR144528], the Ki is listed as 10^-10.1 M.

For the origin of these results see article PMC9469185, “Cannabinoid Receptors and Glial Response Following a Basal Forebrain Cholinergic Lesion” (ACS Pharmacology & Translational Science, 2022).
